Results as given in paper PMC6853915 (Scientific Reports, 2019).

Protein sequences, listed by entry. Tags and fused reporters are not part of them. Residues count along the entry.
UniProt P30405, 30-207: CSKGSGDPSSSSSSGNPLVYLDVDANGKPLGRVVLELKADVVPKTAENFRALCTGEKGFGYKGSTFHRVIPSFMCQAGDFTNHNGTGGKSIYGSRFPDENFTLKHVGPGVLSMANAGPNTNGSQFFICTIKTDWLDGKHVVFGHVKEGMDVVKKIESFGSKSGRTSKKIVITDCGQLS

Key:
Settings in all cases: both partners purified
amyloid-β peptide 1–40 = target: T1, amyloid-β peptide 1–40 (human, UniProt P05067 672-711); test: SPR; cypD held on immobilised Ab(cypD); 17β-HSD10 (100 nM), Aβ1–40 or Aβ1–42 (50-1000 nM, mostly 500 nM) or their mixtures, incubated at 37 °C beforehand (1 hour; or Aβ alone 0-180 min, then 10 min with 17β-HSD10), flowed for 7 or 10 min; HEPES_FINAL (10 mM HEPES, 200 μg/ml BSA, 5 mM Na+, 15 mM K+, 0.1 mM Mg2+, pH 7.4); 25 °C
T1 construct: amyloid-β peptide, residues 1-40 (40 aa), human, cut product of the amyloid precursor protein; numbers count on: the Aβ peptide; The authors take it to stay monomeric under the conditions used; also called Aβ1–40; Aβ_(1–40); source: synthetic peptide; bought: AnaSpec, USA

amyloid-β peptide 1–42 = target: T2, amyloid-β peptide 1–42 (human, UniProt P05067 672-713); test: as above
T2 construct: amyloid-β peptide, residues 1-42 (42 aa), human, cut product of the amyloid precursor protein; numbers count on: the Aβ peptide; Incubated at 37 °C before injection; the authors take it to form oligomers of a size that was not measured; also called Aβ1–42; Aβ_(1–42); source: synthetic peptide; bought: AnaSpec, USA

cyclophilin D = target: T3, cyclophilin D (human, UniProt P30405 30-207); test: SPR; cypD held on immobilised Ab(cypD); 100 nM 17β-HSD10 flowed for 7 min; 10 mM HEPES, 200 μg/ml BSA, 5 mM Na+, pH 7.4 or 7.8, with K+ (up to 140 mM), Mg2+ or Ca2+ (up to 2.5 mM) alone or K+ and Mg2+ combined; 25 °C; reference channel without cypD
T3 construct: cyclophilin D (cypD), human, recombinant; Held on the chip through an immobilised antibody against cypD; also called cypD; source: bought: Fitzgerald, USA (human, recombinant)

B1: 17beta-hydroxysteroid dehydrogenase type 10 (enzyme, human, UniProt Q99714 1-261, looked up)
chain: MAAACRSVKGLVAVITGGASGLGLATAERLVGQGASAVLLDLPNSGGEAQAKKLGNNCVFAPADVTSEKDVQTALALAKGKFGRVDVAVNCAGIAVASKTYNLKKGQTHTLEDFQRVLDVNLMGTFNVIRLVAGEMGQNEPDQGGQRGVIINTASVAAFEGQVGQAAYSASKGGIVGMTLPIARDLAPIGIRVMTIAPGLFGTPLLTSLPEKVCNFLASQVPFPSRLGDPAEYAHLVQAIIENPFLNGEVIRLDGAIRMQP
notes: 17beta-hydroxysteroid dehydrogenase type 10 (17β-HSD10), human, recombinant; the oligomeric state was not measured; also called 17β-HSD10; 17beta-hydroxysteroide dehydrogenase 10; source: bought: Fitzgerald, USA (human, recombinant)
- binding result (amyloid-β peptide 1–40): binds
- binding result (amyloid-β peptide 1–42): binds
- binding efficiency with combined Mg2+ (0.25 mM) and K+ relative to K+ only (cyclophilin D): ~2 fold
